Results: patent US20200325505A1, “FILAMENTOUS FUNGI CAPABLE OF PRODUCING VERY LONG CHAIN FATTY ACIDS” (UT-Battelle, LLC, priority 2019, published 2020)

Test system: Mortierella elongata AG77
Assay: Carbon source utilisation in Biolog 96-well plates, formazan formation after tetrazolium addition
Assay type: cell-based
Conditions: compound as carbon source; Toxic = less formazan formation than a control containing no carbon source
Procedure: Two 300 mL volumes of growth medium comprising 1 g/L KH2PO4, 1 g/L MgSO4 7H2O, 0.1 g/L CaCl2, 0.02 g/L FeNaEDTA, 0.1 g/L NaCl, and either 1 g/L NH4NO3 or 20 g/L sucrose were prepared. Acidity was adjusted to 5.5 using NaOH and volumes of growth medium were autoclaved 30 min at 121° C. to sterilize. Aliquots of 200 μL of carbon-free medium or nitrogen-free medium were pipetted into each well of a set of 96-well plates previously prepared with lyophilized putative carbon or nitrogen sources (Biolog Inc., Hayward, Calif.). Inocula were prepared by perforating a culture of Mortierella elongata AG77 grown on 20 g/L potato dextrose agar with a 3 mm diameter cork borer and separating the surface mycelial mat from the solid growth medium using tweezers. Each well was inoculated with one inoculum. Cultures were incubated at 21° C. for 24 hours to allow metabolic changes to stabilize, and then 100 μL of 3 g/L tetrazolium chloride in water was added to each well. Formazan formation was observed visually at 2 h, 24 h, and 148 h.
Conclusions were based on rate and intensity of formazan formation using the 3-4,5-dimethylthiazol-2-yl)-2,5-diphenyltetrazolium bromide (MTT) assay. “Metabolized” indicates more formazan formation than a control containing no carbon source, and “Toxic” indicates less formazan formation than a control containing no carbon source. […]

## Gentiobiose
  Toxic: no
